This is a selection: effects in other tests are not listed, and their absence says nothing.
System: wheat
Assay: Wheat growth after one-time watering with products (Example 7)
Assay type: in vivo
Design: Shoot length / Root length: unit not given here
Conditions: one-time watering 1000 μg/ml, 200 ml for 20 grains; day 5

Substance: Ammonium nitrate
- Emergence (%): 50%
- Root length: 4.2
- Shoot length: 7.0

— patent US20240180855A1, “BIOACTIVE PRODUCTS” (priority 2021, published 2024)
